Target: T1, AKR1C4 (Homo sapiens, UniProt P17516)
T1 sequence (P17516 1-323): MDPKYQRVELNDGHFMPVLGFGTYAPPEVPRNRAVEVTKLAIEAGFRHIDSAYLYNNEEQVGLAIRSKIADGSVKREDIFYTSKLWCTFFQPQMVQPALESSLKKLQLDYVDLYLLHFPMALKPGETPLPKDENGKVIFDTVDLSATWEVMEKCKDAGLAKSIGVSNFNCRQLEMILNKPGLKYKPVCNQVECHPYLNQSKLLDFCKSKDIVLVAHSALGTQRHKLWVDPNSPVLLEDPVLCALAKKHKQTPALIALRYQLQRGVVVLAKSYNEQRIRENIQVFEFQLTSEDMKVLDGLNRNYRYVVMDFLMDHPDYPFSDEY
Format: biochemical

IC50 ratio AKR1C4/AKR1C3 (value in parentheses) | Structure (SMILES)
49.75 (415) | COc1ccc2c(c1)c(CC(=O)O)c(C)n2C(=O)c1ccc(CCl)cc1 [Compound 3]
12.64 (37) | COc1ccc2c(c1)c(C)c(CCC(=O)NS(C)(=O)=O)n2C(=O)c1ccc(Cl)cc1 [Compound 50, 3-(1-(4-Chlorobenzoyl)-5-methoxy-3-methyl-1H-indol-2-yl)-N-(methylsulfonyl)propanamide]
